Data from patent US20090099157A1, “TETRAHYDRO-PYRAZOLO-PYRIDINE THIOETHER MODULATORS OF CATHEPSIN S” (priority 2007, published 2009).

Sequences of proteins named here, by UniProt entry; tags and fusion partners are left off. Residues count along the entry.
UniProt P25774, 115-331: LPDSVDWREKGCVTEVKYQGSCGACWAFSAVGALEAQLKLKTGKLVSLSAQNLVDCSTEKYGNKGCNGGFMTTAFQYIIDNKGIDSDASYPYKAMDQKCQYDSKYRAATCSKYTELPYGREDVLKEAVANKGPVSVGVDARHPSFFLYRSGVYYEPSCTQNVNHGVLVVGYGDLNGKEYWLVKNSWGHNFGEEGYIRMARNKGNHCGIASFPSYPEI

Molecular target: Recombinant human cathepsin S (CatS) (Homo sapiens, UniProt P25774)
Experiment: biochemical

| IC50 | SMILES |
| --- | --- |
| 290 nM | CC1CCN(CCSc2cc(-c3nn(C[C@@H](O)CN4CCCCC4)c4c3CN(S(C)(=O)=O)CC4)ccc2C(F)(F)F)CC1 [Example 377, (2S)-1-{3-[3-{[2-(4-Methylpiperidin-1-yl)ethyl]sulfanyl}-4-(trifluoromethyl)phenyl]-5-(methylsulfonyl)-4,5,6,7-tetrahydro-1H-pyrazolo[4,3-c]pyridin-1-yl}-3-piperidin-1-ylpropan-2-ol] |
| 200 nM | CS(=O)(=O)N1CCc2c(c(-c3ccc(C(F)(F)F)c(SCCN4CCC(F)CC4)c3)nn2C[C@@H](O)CN2CCC3(CC2)OCCCO3)C1 [Example 701, (2S)-1-(1,5-Dioxa-9-azaspiro[5.5]undec-9-yl)-3-{3-[3-{[2-(4-fluoropiperidin-1-yl)ethyl]sulfanyl}-4-(trifluoromethyl)phenyl]-5-(methylsulfonyl)-4,5,6,7-tetrahydro-1H-pyrazolo[4,3-c]pyridin-1-yl}propan-2-ol] |
| 1160 nM | CS(=O)(=O)N1CCc2c(c(-c3ccc(C(F)(F)F)c(SCCN4CC[C@H](F)C4)c3)nn2C[C@@H](O)CN2CCC(C(N)=O)CC2)C1 [Example 565, 1-[(2S)-3-{3-[3-({2-[(3S)-3-Fluoropyrrolidin-1-yl]ethyl}sulfanyl)-4-(trifluoromethyl)phenyl]-5-(methylsulfonyl)-4,5,6,7-tetrahydro-1H-pyrazolo[4,3-c]pyridin-1-yl}-2-hydroxypropyl]piperidine-4-carboxamide] |
| 180 nM | CS(=O)(=O)N1CCc2c(c(-c3ccc(C(F)(F)F)c(SCCN4CCCC(F)(F)C4)c3)nn2C[C@@H](O)CN2CCSCC2)C1 [Example 588, (2S)-1-{3-[3-{[2-(3,3-Difluoropiperidin-1-yl)ethyl]sulfanyl}-4-(trifluoromethyl)phenyl]-5-(methylsulfonyl)-4,5,6,7-tetrahydro-1H-pyrazolo[4,3-c]pyridin-1-yl}-3-thiomorpholin-4-ylpropan-2-ol] |
| 75 nM | CC(C)(O)C1CCN(C[C@H](O)Cn2nc(-c3ccc(C(F)(F)F)c(SCCN4CCCC(F)(F)C4)c3)c3c2CCN(S(C)(=O)=O)C3)CC1 [Example 724, (2S)-1-{3-[3-{[2-(3,3-Difluoropiperidin-1-yl)ethyl]sulfanyl}-4-(trifluoromethyl)phenyl]-5-(methylsulfonyl)-4,5,6,7-tetrahydro-1H-pyrazolo[4,3-c]pyridin-1-yl}-3-[4-(1-hydroxy-1-methylethyl)piperidin-1-yl]propan-2-ol] |
| 140 nM | CS(=O)(=O)N1CCc2c(c(-c3ccc(C(F)(F)F)c(SCCN4CCC(O)CC4)c3)nn2CC(O)CN2CCC(O)(c3ccccn3)CC2)C1 (stereo not shown) [Example 782, 1-(2-Hydroxy-3-{3-[3-{[2-(4-hydroxypiperidin-1-yl)ethyl]sulfanyl}-4-(trifluoromethyl)phenyl]-5-(methylsulfonyl)-4,5,6,7-tetrahydro-1H-pyrazolo[4,3-c]pyridin-1-yl}propyl)-4-pyridin-2-ylpiperidin-4-ol] |
| 210 nM | CC1(C)CCN(C[C@@H](O)Cn2nc(-c3ccc(C(F)(F)F)c(SCCN4CCC(F)CC4)c3)c3c2CCN(S(C)(=O)=O)C3)CC1 [Example 561, (2R)-1-(4,4-Dimethylpiperidin-1-yl)-3-{3-[3-{[2-(4-fluoropiperidin-1-yl)ethyl]sulfanyl}-4-(trifluoromethyl)phenyl]-5-(methylsulfonyl)-4,5,6,7-tetrahydro-1H-pyrazolo[4,3-c]pyridin-1-yl}propan-2-ol] |
| 410 nM | CC1CCN(CCSc2cc(-c3nn(C[C@@H](O)CN4CCOC[C@@H]4C)c4c3CN(S(C)(=O)=O)CC4)ccc2C(F)(F)F)CC1 [Example 456, (2S)-1-[(3S)-3-Methylmorpholin-4-yl]-3-{3-[3-{[2-(4-methylpiperidin-1-yl)ethyl]sulfanyl}-4-(trifluoromethyl)phenyl]-5-(methylsulfonyl)-4,5,6,7-tetrahydro-1H-pyrazolo[4,3-c]pyridin-1-yl}propan-2-ol] |
| 20 nM | CS(=O)(=O)N1CCc2c(c(-c3ccc(C(F)(F)F)c(SCCN4CCCC(F)(F)C4)c3)nn2C[C@@H](O)CN2CCC(NC(=O)CO)CC2)C1 [Example 209, N-{1-[(2S)-3-{3-[3-{[2-(3,3-Difluoropiperidin-1-yl)ethyl]sulfanyl}-4-(trifluoromethyl)phenyl]-5-(methylsulfonyl)-4,5,6,7-tetrahydro-1H-pyrazolo[4,3-c]pyridin-1-yl}-2-hydroxypropyl]piperidin-4-yl}-2-hydroxyacetamide] |

Further lines, the molecule ahead of its results:

| SMILES | IC50 |
| --- | --- |
| CC(=O)N1CCc2c(c(-c3ccc(C(F)(F)F)c(SCC(=O)N4CCCC4)c3)nn2CC(O)CN2CCC3(CC2)OCCO3)C1 (stereo not shown) [Example 423, 1-(5-Acetyl-3-{3-[(2-oxo-2-pyrrolidin-1-ylethyl)sulfanyl]-4-(trifluoromethyl)phenyl}-4,5,6,7-tetrahydro-1H-pyrazolo[4,3-c]pyridin-1-yl)-3-(1,4-dioxa-8-azaspiro[4.5]dec-8-yl)propan-2-ol] | 200 nM |
| CS(=O)(=O)N1CCc2c(c(-c3ccc(C(F)(F)F)c(SCCN4CCCCC4)c3)nn2CC(O)CN2CCN(c3c(Cl)cncc3Cl)CC2)C1 (stereo not shown) [Example 866, 1-[4-(3,5-Dichloropyridin-4-yl)piperazin-1-yl]-3-[5-(methylsulfonyl)-3-{3-[(2-piperidin-1-ylethyl)sulfanyl]-4-(trifluoromethyl)phenyl}-4,5,6,7-tetrahydro-1H-pyrazolo[4,3-c]pyridin-1-yl]propan-2-ol] | 20 nM |
| COC(=O)C(=O)N1CCc2c(c(-c3ccc(C(F)(F)F)c(SCCNC(=O)OCc4ccccc4)c3)nn2CC(O)CN2CCC(c3ccccn3)CC2)C1 (stereo not shown) [Example 871, Methyl {1-[2-hydroxy-3-(4-pyridin-2-ylpiperidin-1-yl)propyl]-3-[3-{[2-({[(phenylmethyl)oxy]carbonyl}amino)ethyl]sulfanyl}-4-(trifluoromethyl)phenyl]-1,4,6,7-tetrahydro-5H-pyrazolo[4,3-c]pyridin-5-yl}(oxo)acetate] | 45 nM |
| CS(=O)(=O)N1CCc2c(c(-c3ccc(C(F)(F)F)c(SCC(=O)N4CCC(O)C4)c3)nn2CCCN2CCC(N3CCCC3=O)CC2)C1 (stereo not shown) [Example 75, 1-{1-[3-(3-{3-[2-(3-Hydroxy-pyrrolidin-1-yl)-2-oxo-ethylsulfanyl]-4-trifluoromethyl-phenyl}-5-methanesulfonyl-4,5,6,7-tetrahydro-pyrazolo[4,3-c]pyridin-1-yl)-propyl]-piperidin-4-yl}-pyrrolidin-2-one] | 90 nM |
| CS(=O)(=O)N1CCc2c(c(-c3ccc(C(F)(F)F)c(SCCN4CCC(O)CC4)c3)nn2CC(O)CN2CCC(c3ccccn3)CC2)C1 (stereo not shown) [Example 172, 1-(2-{[5-{1-[2-Hydroxy-3-(4-pyridin-2-ylpiperidin-1-yl)propyl]-5-(methylsulfonyl)-4,5,6,7-tetrahydro-1H-pyrazolo[4,3-c]pyridin-3-yl}-2-(trifluoromethyl)phenyl]sulfanyl}ethyl)piperidin-4-ol] | 20 nM |
| COc1ccccc1C1CCN(CC(O)Cn2nc(-c3ccc(C(F)(F)F)c(SCCN4CCOCC4)c3)c3c2CCN(S(C)(=O)=O)C3)CC1 (stereo not shown) [Example 779, 1-{4-[2-(Methyloxy)phenyl]piperidin-1-yl}-3-[5-(methylsulfonyl)-3-{3-[(2-morpholin-4-ylethyl)sulfanyl]-4-(trifluoromethyl)phenyl}-4,5,6,7-tetrahydro-1H-pyrazolo[4,3-c]pyridin-1-yl]propan-2-ol] | 40 nM |
| CC(C)(C)NC(=O)N1CCc2c(c(-c3ccc(C(F)(F)F)c(SCCN4CCC(F)CC4)c3)nn2C[C@@H](O)CN2CCCCC2)C1 [Example 522, N-(1,1-Dimethylethyl)-3-[3-{[2-(4-fluoropiperidin-1-yl)ethyl]sulfanyl}-4-(trifluoromethyl)phenyl]-1-[(2S)-2-hydroxy-3-piperidin-1-ylpropyl]-1,4,6,7-tetrahydro-5H-pyrazolo[4,3-c]pyridine-5-carboxamide] | 980 nM |
| CS(=O)(=O)N1CCc2c(c(-c3ccc(C(F)(F)F)c(SCCN4CCCC(O)C4)c3)nn2CC(O)CN2CCC(Oc3ncccn3)CC2)C1 (stereo not shown) [Example 191, 1-[2-({5-[1-{2-Hydroxy-3-[4-(pyrimidin-2-yloxy)piperidin-1-yl]propyl}-5-(methylsulfonyl)-4,5,6,7-tetrahydro-1H-pyrazolo[4,3-c]pyridin-3-yl]-2-(trifluoromethyl)phenyl}sulfanyl)ethyl]piperidin-3-ol] | 60 nM |
| O=C(CO)NC1CCN(CC(O)Cn2nc(-c3ccc(C(F)(F)F)c(SCCN4CCCCC4)c3)c3c2CCNC3)CC1 (stereo not shown) [Example 333, 2-Hydroxy-N-{1-[2-hydroxy-3-(3-{3-[(2-piperidin-1-ylethyl)sulfanyl]-4-(trifluoromethyl)phenyl}-4,5,6,7-tetrahydro-1H-pyrazolo[4,3-c]pyridin-1-yl)propyl]piperidin-4-yl}acetamide] | 3110 nM |
| CC1CCN(CCSc2cc(-c3nn(CC(O)CN4CCCCC4)c4c3CN(C(=O)C(N)=O)CC4)ccc2C(F)(F)F)CC1 (stereo not shown) [Example 362, 2-{1-(2-Hydroxy-3-piperidin-1-ylpropyl)-3-[3-{[2-(4-methylpiperidin-1-yl)ethyl]sulfanyl}-4-(trifluoromethyl)phenyl]-1,4,6,7-tetrahydro-5H-pyrazolo[4,3-c]pyridin-5-yl}-2-oxoacetamide] | 100 nM |
| CS(=O)(=O)N1CCc2c(c(-c3ccc(C(F)(F)F)c(SCCN4CCOCC4)c3)nn2CC(O)CN2CCN(c3ccccc3)CC2)C1 (stereo not shown) [Example 665, 1-[5-(Methylsulfonyl)-3-{3-[(2-morpholin-4-ylethyl)sulfanyl]-4-(trifluoromethyl)phenyl}-4,5,6,7-tetrahydro-1H-pyrazolo[4,3-c]pyridin-1-yl]-3-(4-phenylpiperazin-1-yl)propan-2-ol] | 65 nM |
| CS(=O)(=O)N1CCc2c(c(-c3ccc(C(F)(F)F)c(SCCN4CCOCC4)c3)nn2CC(O)CN2CCN(c3ccccc3O)CC2)C1 (stereo not shown) [Example 736, 2-(4-{2-Hydroxy-3-[5-(methylsulfonyl)-3-{3-[(2-morpholin-4-ylethyl)sulfanyl]-4-(trifluoromethyl)phenyl}-4,5,6,7-tetrahydro-1H-pyrazolo[4,3-c]pyridin-1-yl]propyl}piperazin-1-yl)phenol] | 40 nM |
| CS(=O)(=O)N1CCc2c(c(-c3ccc(C(F)(F)F)c(SCC(=O)N4CCCCC4)c3)nn2CCCN2CCC(N3CCCC3=O)CC2)C1 [Example 93, 1-[1-(3-{5-Methanesulfonyl-3-[3-(2-oxo-2-piperidin-1-yl-ethylsulfanyl)-4-trifluoromethyl-phenyl]-4,5,6,7-tetrahydro-pyrazolo[4,3-c]pyridin-1-yl}-propyl)-piperidin-4-yl]-pyrrolidin-2-one] | 80 nM |
